The record followed here is ChEMBL document CHEMBL4811320, “Design, synthesis and biological evaluation of 2-styryl-5-hydroxy-4-pyrone derivatives and analogues as multiple functional agents with the potential for the treatment of Alzheimer's disease” (Bioorg Med Chem, 2021).

The chains behind the UniProt entries cited, without tags or fusion partners. Where a name states a change or a piece, a line headed by the entry shows the natural chain unless it says otherwise.
UniProt Q9Y5N1: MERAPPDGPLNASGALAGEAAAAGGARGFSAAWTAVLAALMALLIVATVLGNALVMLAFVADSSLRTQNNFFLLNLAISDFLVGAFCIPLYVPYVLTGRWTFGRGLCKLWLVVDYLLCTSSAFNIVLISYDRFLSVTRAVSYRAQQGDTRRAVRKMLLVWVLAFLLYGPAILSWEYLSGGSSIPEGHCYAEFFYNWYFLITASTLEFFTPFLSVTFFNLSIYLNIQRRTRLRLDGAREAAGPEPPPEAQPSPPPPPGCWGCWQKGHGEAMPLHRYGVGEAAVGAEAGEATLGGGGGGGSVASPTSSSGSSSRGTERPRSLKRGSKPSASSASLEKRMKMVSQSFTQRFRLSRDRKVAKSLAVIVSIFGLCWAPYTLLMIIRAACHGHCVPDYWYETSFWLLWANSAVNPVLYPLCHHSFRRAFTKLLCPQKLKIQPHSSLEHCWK

This assay addresses Histamine H3 receptor (Homo sapiens, UniProt Q9Y5N1). Description: Antagonist activity at human H3 receptor by TR-FRET assay. The assay is classed as functional. For orientation: Time-resolved FRET reads energy transfer from a long-lived donor to a nearby acceptor.

One may read the IC50 as the point on the concentration scale where inhibition reaches its midpoint. Low readings indicate inhibition by little substance, high ones a need for much substance. As for `NC(=NCc1ccc(Cl)cc1)SCCCc1cnc[nH]1` [CLOBENPROPIT], half-maximal inhibition (IC50) required 1.32 nM.
